Reference: patent publication US10927078B2, “Modulators of indoleamine 2,3-dioxygenase” (GLAXOSMITHKLINE INTELLECTUAL PROPERTY DEVELOPMENT LIMITED, priority 2017, dated 2021)

Chains of the proteins cited; added tags and fusions are not shown.
UniProt P14902, whole entry: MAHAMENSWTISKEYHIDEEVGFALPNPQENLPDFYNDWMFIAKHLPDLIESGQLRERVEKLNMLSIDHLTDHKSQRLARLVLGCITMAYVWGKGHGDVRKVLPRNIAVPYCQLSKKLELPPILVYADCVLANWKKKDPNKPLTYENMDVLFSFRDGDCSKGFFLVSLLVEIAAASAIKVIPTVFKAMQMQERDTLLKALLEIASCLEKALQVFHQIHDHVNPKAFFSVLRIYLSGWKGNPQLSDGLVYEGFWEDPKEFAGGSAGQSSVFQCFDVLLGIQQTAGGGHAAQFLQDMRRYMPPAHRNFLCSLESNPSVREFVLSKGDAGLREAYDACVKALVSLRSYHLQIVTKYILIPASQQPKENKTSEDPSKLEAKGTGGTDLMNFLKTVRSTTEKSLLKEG

Target: indoleamine 2, 3-dioxygenase (IDO1) (Homo sapiens, UniProt P14902)
Assay: PBMC IDO1 assay (kynurenine via mass spectrometry)

SMILES: CC(C)CC(NC(=O)c1ccc(Cl)cc1)C1CCN(C(=O)Oc2cccc3cn[nH]c23)CC1 (stereo not shown)
- PBMC PXC50_: 9.3
